Data published in patent publication US20030211537A1 (ARCH DEVELOPMENT, published 2003).
Like-named read-outs stand apart in the source and are kept apart here.

Chains of the proteins cited; added tags and fusions are not shown. Lines headed by an entry give the natural chain unless they say otherwise; changes in a name come on top.
UniProt P01210: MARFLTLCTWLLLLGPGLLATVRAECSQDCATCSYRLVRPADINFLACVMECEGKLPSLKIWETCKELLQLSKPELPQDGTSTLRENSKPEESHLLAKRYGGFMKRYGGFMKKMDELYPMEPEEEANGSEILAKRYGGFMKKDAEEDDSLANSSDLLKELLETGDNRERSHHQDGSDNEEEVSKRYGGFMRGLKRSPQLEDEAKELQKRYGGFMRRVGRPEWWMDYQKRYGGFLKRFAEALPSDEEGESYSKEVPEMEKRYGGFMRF

Assays:
[1] = target: T1, mouse delta opioid receptor (mORD1) (mouse, UniProt P32300 1-372); test: competition vs [3H]naltrindole, COS-1 membranes
T1 construct: Assayed in membranes of transfected COS-1, CHO-DG44 or COS-7 cells; also called msl-2; δ receptor

[2] = target: T2, cloned human µ opioid receptor (human, UniProt P35372 1-400); test: competition vs [3H]DAMGO, COS-7 membranes
rat µ opioid receptor = target: T3, rat µ opioid receptor (rat, UniProt P33535 1-398); test: competition vs [3H]DAMGO, COS-7 membranes
T3 construct: whole, on cells; Assayed in membranes of transfected COS-7 cells; also called cloned µ receptor; rat µ receptor

[3] = target: T2, cloned human µ opioid receptor; test: competition vs [3H]DAMGO, COS-7 membranes; remark: listed apart in the source
[4] = target: T4, H278N mutant mouse delta opioid receptor (mouse, UniProt P32300 1-372); test: competition vs 3H-naltrindole, COS-7 membranes
T4 construct: Expressed in COS-7 cells, membranes assayed

[5] = target: T1, mouse delta opioid receptor (mORD1); test: competition vs 3H-naltrindole, COS-7 membranes
[6] = target: T5, D128N mutant mouse delta opioid receptor (mouse, UniProt P32300 1-372); test: competition vs 3H-naltrindole, COS-7 membranes
T5 construct: Expressed in COS-7 cells, membranes assayed; also called D128 mutant

Row | IC50 [1] [nM] | Ki [2] [nM] | Ki (rat µ opioid receptor) [nM] | Ki [3] [nM] | Ki [4] [nM] | Ki [5] [nM] | Ki [6] [nM] | Binder
1 | 41 |  |  |  |  |  |  | YGGFM (peptide, UniProt P01210 100-104, looked up, domain: Met-enkephalin) [Met-enkephalin]
2 | 15.3 | 0.94 | 1.7 | 0.94 | 8.1 | 26 | 15800 | YGGFMTSEKSQTPLVTLFKNAIIKNAYKKGE (peptide, UniProt P01189 237-267, looked up, 125I-labelled where used as radioligand, domain: β-Endorphin; also called beta-endorphin) [β-Endorphin (human)]
